The target in test [1] is Alpha-1B adrenergic receptor (Homo sapiens, UniProt P35368). As to the kind of experiment: Binding affinity was tested on human Alpha-1B adrenergic receptor.
Test [2] addresses Alpha-1D adrenergic receptor (Homo sapiens, UniProt P25100). As to the kind of experiment: Binding affinity was tested on human Alpha-1D adrenergic receptor.
In test [3] the target is T1, Alpha-1A adrenergic receptor (Homo sapiens, UniProt P35348).
T1 sequence (P35348 whole entry): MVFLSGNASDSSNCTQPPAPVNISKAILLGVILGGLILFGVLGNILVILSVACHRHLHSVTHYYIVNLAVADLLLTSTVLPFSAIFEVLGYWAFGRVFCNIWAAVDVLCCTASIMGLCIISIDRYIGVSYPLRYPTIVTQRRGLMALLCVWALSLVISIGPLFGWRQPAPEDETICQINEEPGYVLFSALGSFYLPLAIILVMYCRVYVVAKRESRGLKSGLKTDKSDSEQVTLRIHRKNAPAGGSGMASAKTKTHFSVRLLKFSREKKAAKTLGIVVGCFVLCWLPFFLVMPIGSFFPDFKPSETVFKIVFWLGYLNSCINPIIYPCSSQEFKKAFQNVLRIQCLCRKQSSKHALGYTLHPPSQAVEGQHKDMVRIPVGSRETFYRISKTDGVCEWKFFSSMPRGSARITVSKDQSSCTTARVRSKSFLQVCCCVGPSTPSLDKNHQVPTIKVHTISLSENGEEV
Briefly: Binding affinity was tested on human Alpha-1A adrenergic receptor.

Amino acid sequences for entries named in this document (tags omitted).
UniProt P35368, whole entry: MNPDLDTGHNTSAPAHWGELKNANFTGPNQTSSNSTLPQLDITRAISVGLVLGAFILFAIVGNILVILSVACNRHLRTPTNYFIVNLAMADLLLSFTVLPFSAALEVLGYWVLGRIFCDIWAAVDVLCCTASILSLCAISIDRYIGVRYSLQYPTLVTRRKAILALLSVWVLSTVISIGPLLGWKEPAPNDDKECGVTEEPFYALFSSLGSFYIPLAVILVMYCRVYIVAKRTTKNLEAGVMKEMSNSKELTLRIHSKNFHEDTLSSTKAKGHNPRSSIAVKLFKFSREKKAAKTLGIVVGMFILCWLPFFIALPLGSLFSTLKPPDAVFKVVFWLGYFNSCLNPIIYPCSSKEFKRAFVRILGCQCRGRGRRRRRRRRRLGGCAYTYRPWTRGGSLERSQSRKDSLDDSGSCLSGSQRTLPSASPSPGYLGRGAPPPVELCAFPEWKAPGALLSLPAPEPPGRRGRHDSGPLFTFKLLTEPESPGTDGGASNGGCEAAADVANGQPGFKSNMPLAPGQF
UniProt P25100, whole entry: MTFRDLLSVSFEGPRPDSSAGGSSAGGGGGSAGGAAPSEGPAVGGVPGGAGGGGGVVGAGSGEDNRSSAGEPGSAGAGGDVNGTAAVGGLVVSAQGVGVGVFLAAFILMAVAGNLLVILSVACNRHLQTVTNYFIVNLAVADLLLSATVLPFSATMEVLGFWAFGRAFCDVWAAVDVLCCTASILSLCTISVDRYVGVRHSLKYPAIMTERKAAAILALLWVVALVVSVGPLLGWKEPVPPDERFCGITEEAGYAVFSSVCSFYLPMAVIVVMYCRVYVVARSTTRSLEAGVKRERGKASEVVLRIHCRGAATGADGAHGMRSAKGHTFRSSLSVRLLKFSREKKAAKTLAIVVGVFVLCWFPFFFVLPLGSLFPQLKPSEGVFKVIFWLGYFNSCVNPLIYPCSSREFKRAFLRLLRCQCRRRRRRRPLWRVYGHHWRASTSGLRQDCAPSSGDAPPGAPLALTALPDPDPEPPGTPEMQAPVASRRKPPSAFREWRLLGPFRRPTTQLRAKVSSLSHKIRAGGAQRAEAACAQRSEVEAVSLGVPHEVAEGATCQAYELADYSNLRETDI

Test [4] deals with Adrenergic receptor alpha-1 (Homo sapiens, UniProt P35348+P25100+P35368). As to the kind of experiment: pA2 for Alpha-1 adrenergic receptor from human prostate. The format is tissue-based, Prostate gland.

The structures appear in SMILES notation.

One may read the Ki as the equilibrium dissociation constant of an inhibitor or competing ligand from its target. Low values mean tighter binding, high ones weaker binding. The pA2 is a measure of antagonist potency on a negative log scale. A low value points to lower antagonist potency.

In test [1], `COc1cc2nc(N3CCN(C(=O)C4COc5ccccc5O4)CC3)nc(N)c2cc1OC` (centres undefined) [DOXAZOSIN] had a Ki of 1 nM.
Consider `COc1ccccc1N1CCN(CCCNC(=O)c2cccc3c(=O)c(C)c(-c4ccccc4)oc23)CC1` [UPIDOSIN], for which the Ki in test [2] is 2.51 nM; in test [3] it was 1 nM. Further, in test [4], the pA2 is on record as 8.8.

The values above are taken from ChEMBL document CHEMBL1129998, “Pharmacological options in the treatment of benign prostatic hyperplasia” (J Med Chem, 1997).
